ChEMBL document CHEMBL5543159, “Discovery of an Ortho-Substituted N-Cyclopropylmethyl-7α-phenyl-6,14-endoethano-tetrahydronorthebaine Derivative as a Selective and Potent Kappa Opioid Receptor Agonist with Subsided Sedative Effect” (2024)

Protein sequences, listed by entry. Tags and fused reporters are not part of them.
UniProt P33535, whole entry: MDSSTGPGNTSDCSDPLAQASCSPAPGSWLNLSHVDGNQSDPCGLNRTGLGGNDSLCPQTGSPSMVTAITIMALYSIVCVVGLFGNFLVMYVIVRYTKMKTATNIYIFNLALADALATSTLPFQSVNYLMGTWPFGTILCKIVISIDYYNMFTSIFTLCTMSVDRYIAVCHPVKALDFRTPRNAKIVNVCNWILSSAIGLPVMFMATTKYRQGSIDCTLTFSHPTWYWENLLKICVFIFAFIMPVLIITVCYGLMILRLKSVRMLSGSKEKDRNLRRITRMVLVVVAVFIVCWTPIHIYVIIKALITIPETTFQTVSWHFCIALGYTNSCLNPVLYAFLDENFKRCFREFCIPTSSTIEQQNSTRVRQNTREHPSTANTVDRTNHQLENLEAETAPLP
UniProt P33533, whole entry: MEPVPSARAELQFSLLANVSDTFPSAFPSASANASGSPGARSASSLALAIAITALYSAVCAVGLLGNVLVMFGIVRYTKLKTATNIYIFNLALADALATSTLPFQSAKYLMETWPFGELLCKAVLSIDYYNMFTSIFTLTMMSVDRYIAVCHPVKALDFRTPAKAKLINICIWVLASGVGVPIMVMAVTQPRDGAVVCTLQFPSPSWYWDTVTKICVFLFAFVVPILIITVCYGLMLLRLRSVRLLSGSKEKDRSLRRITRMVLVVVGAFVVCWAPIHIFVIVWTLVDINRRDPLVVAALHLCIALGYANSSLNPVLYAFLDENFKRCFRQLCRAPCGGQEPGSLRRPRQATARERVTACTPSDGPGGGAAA

Assays:
[1] = biological target: Mu-type opioid receptor (Rattus norvegicus) (UniProt P33535); test: Agonist activity at rat MOR expressed in CHO cell membrane assessed as stimulation of [35S]-GTPgammaS binding by measuring maximum efficacy incubated for 1 hr by liquid scintillation counting assay relative to control; settings: filed as agonist
[2] = biological target: Delta-type opioid receptor (Rattus norvegicus) (UniProt P33533); test: Agonist activity at rat DOR expressed in CHO cell membrane assessed as stimulation of [35S]-GTPgammaS binding by measuring maximum efficacy incubated for 1 hr by liquid scintillation counting assay relative to control; settings: filed as agonist
[3] = Selectivity ratio of Ki for displacement of [3H]-DAMGO from rat MOR receptor to Ki for displacement of [3H]U69593 from human KOR
[4] = Selectivity ratio of Ki for displacement of [3H]DPDPE from rat DOR to Ki for displacement of [3H]U69593 from human KOR

| Structure (SMILES) | Emax [1] | Emax [2] | Ratio Ki [3] | Ratio Ki [4] |
| --- | --- | --- | --- | --- |
| COc1ccc2c3c1O[C@H]1[C@@]4(OC)CC[C@@]5(C[C@@H]4c4ccccc4NCc4ccccc4)[C@@H](C2)N(CC2CC2)CC[C@]315 | 170% | 213% | 270 | 1080 |
| COc1ccc2c3c1O[C@H]1[C@@]4(OC)CC[C@@]5(C[C@@H]4c4ccccc4NC(=O)Cc4ccccc4)[C@@H](C2)N(CC2CC2)CC[C@]315 | – | 168% | 2.3 | 4.5 |
